Measured values from ChEMBL document CHEMBL1221311, “The synthesis and structure-activity relationship of 4-benzimidazolyl-piperidinylcarbonyl-piperidine analogs as histamine H3 antagonists” (Bioorg Med Chem Lett, 2010).

Protein sequences, listed by entry. Tags and fused reporters are not part of them. Lines headed by an entry give the natural chain unless they say otherwise; changes in a name come on top.
UniProt Q9JI35: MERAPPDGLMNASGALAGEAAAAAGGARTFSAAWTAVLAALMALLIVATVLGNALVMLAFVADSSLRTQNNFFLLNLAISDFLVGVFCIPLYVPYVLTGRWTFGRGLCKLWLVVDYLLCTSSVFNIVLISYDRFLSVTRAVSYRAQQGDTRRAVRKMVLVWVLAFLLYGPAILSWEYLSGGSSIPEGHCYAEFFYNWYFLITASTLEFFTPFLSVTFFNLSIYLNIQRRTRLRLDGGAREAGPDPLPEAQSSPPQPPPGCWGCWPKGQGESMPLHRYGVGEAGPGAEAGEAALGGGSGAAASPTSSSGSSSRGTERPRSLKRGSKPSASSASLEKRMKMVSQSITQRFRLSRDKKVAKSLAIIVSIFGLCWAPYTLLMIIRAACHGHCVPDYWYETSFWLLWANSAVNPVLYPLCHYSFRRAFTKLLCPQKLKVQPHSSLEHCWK

Target: T1, Histamine H3 receptor (Cavia porcellus, UniProt Q9JI35)
Test: Antagonist activity at histamine H3 receptor in electrically-stimulated guinea pig ileum

Q: Which pA2 does the source give for O=C(C1CCN(Cc2ccncc2)CC1)N1CCC(n2c(=O)n(CCO)c3ccccc32)CC1 here?
A: 8.2

Q: For O=C(C1CCN(Cc2ccncc2)CC1)N1CCC(n2c(=O)n(CCN3CCOCC3)c3ccccc32)CC1, which pA2 is on record?
A: 9.1

Q: With Cn1c(=O)n(C2CCN(C(=O)C3CCN(Cc4ccncc4)CC3)CC2)c2ccccc21 as the molecule, how does the pA2 read?
A: 8.3

Q: Which pA2 does the source give for CC(C)OCCn1c(=O)n(C2CCN(C(=O)C3CCN(Cc4ccncc4)CC3)CC2)c2ccccc21 here?
A: 9.3

Q: Which pA2 does the source give for O=C(C1CCN(Cc2ccncc2)CC1)N1CCC(n2c(=O)n(CCN3CCCCC3)c3ccccc32)CC1 here?
A: 8.9

Q: Which pA2 does the source give for O=C(C1CCN(Cc2ccncc2)CC1)N1CCC(n2c(=O)[nH]c3ccccc32)CC1 here?
A: 8.1

Q: With COCCn1c(=O)n(C2CCN(C(=O)C3CCN(Cc4ccncc4)CC3)CC2)c2ccccc21 as the molecule, how does the pA2 read?
A: 8.8

Q: CCOCCCn1c(=O)n(C2CCN(C(=O)C3CCN(Cc4ccncc4)CC3)CC2)c2ccccc21 was tested. Which pA2 did it give?
A: 8.5

Q: CN(C)CCn1c(=O)n(C2CCN(C(=O)C3CCN(Cc4ccncc4)CC3)CC2)c2ccccc21 was tested. Which pA2 did it give?
A: 9.3

Q: O=C(C1CCN(Cc2ccncc2)CC1)N1CCC(n2c(=O)n(CCOc3ccccc3)c3ccccc32)CC1 was tested. Which pA2 did it give?
A: 9.1

Q: Which pA2 does the source give for CN(C)CCCn1c(=O)n(C2CCN(C(=O)C3CCN(Cc4ccncc4)CC3)CC2)c2ccccc21 here?
A: 9.7

Q: How did the pA2 turn out when O=C(C1CCN(Cc2ccncc2)CC1)N1CCC(n2c(=O)n(Cc3ccccc3)c3ccccc32)CC1 was run?
A: 8.9

Q: How did the pA2 turn out when CCOCCn1c(=O)n(C2CCN(C(=O)C3CCN(Cc4ccncc4)CC3)CC2)c2ccccc21 was run?
A: 8.7

Target: T1, Histamine H3 receptor
Test: Displacement of [3H]Nalpha-methylhistamine from histamine H3 receptor in guinea pig brain

Q: CN(C)CCCn1c(=O)n(C2CCN(C(=O)C3CCN(Cc4ccncc4)CC3)CC2)c2ccccc21 was tested. Which Ki did it give?
A: 0.2 nM
